# DT40 TDP1 CPT = DT40-hTDP1 cell growth loss with CPT; 420,000 tested, 12% active; chicken DT40 Tdp1-/-;hTDP1 cells + 20 nM CPT, ATP luminescence, 48 h; Potency, µM (highest dose often 46.2 µM), inactives show at the highest dose activity change, negative = growth inhibition, most hits filed as inhibitors; AID 686979; further: potency means the concentration at half of the fitted maximal effect; on the % scale 0 is the no-effect control and ±100 the full control effect; nearly all actives have a fitted effect of over 55% in size
#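 Chicken DT40 Tdp1-/- cells complemented with human TDP1, 400 cells/well, exposed to compounds plus 20 nM camptothecin for at least 48 h at 37 C; viability read as ATP content by CellTiter-Glo luminescence.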
# TDP1 inh = TDP1 (human) enzyme inhibition | Q9NUW8 | recombinant TDP1, AlphaScreen DNA substrate cleavage | Potency, µM (highest dose often 130 µM), for the others: top-dose activity change, negative = inhibition, most hits filed as inhibitors | 350,000 tested, 0.28% active | AID 485290; further: potency means the concentration at half of the fitted maximal effect; on the % scale 0 is the no-effect control and ±100 the full control effect; nearly all actives have a fitted effect of over 40% in size
#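 Steps: enzyme plus compound, 15 min RT; add biotin/phosphotyrosine-FITC oligonucleotide (15 nM final), react 5 min; add donor/acceptor beads (10 ug/ml final), 10 min; read AlphaScreen. Tdp1 at 1 nM final.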
# miR-21 FLuc = miR-21 reporter, rising signal | AID 2288 | HeLa miR-21 FLuc reporter, luciferase, 48 h | 340,000 tested, under 10 active | Potency, µM (titrated, usually from 38.3 µM), for the others: at the top dose reporter change, positive = more light; active = well fitted rising curve with a large enough effect; inconclusive = small, poorly fitted or top-dose-only effect; inactive = no such curve, though single readings can be large or run the other way;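 also: % of control where 0% means no effect; miR-21 action dims this reporter so a rising signal means less miR-21 action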
#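 Compounds were titrated across several concentrations (up to approximately 40 uM) and incubated 48 hours with HeLa miR-21-FLuc reporter cells (miR-21 target sequence downstream of FLuc, endogenous miR-21). Readout was firefly luciferase luminescence after lytic detection reagent.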
# DT40 TDP1 no CPT = qHTS for Inhibitors of human tyrosyl-DNA phosphodiesterase 1 (TDP1): qHTS in cells in absence of CPT; DT40 Tdp1-/- hTDP1 cells, no CPT, ATP luminescence, 48 h; Potency, µM (series often up to 46.2 µM), without a hit: at the highest dose activity change, negative = growth inhibition, most hits filed as inhibitors; 420,000 tested, 15% active; AID 686978, 2013; further: potency means the concentration at half of the fitted maximal effect; on the % scale 0 is the no-effect control and ±100 the full control effect; nearly all actives have a fitted effect of over 55% in size
#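 Chicken DT40 Tdp1-/- cells stably complemented with human TDP1 were seeded at 400 cells/well with DMSO in place of 20 nM camptothecin. After compound pinning, cells grew at least 48 hr at 37 °C; viability read by CellTiter-Glo luminescence.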
# uPA surface inh = cell surface uPA generation inhibition | cell surface uPA generation assay, qHTS | Potency, µM (highest dose often 38.3 µM), for inactives: at the highest dose activity change, negative = inhibition, hits mostly inhibitors | AID 540303 | 330,000 tested, 0.31% active; active means well fitted inhibition curve with a large enough effect; inconclusive means small, poorly fitted or top-dose-only effect; inactive means no such curve, though single readings can be large or run the other way; tested in mouse RAW 264.7 cells; further: potency means the concentration at half of the fitted maximal effect; on the % scale 0 is the no-effect control and ±100 the full control effect; nearly all actives have a fitted effect of over 55% in size
# * = called active by the depositor; ? = inconclusive; / = no result given; [ ] = another dose, or the depositor's remark. This is a sample that favours compounds with a hit; in the whole collection about 16% have one here. Unless noted, the call rests on the fitted dose curve; in most records, active means well fitted curve in the direction sought with a large enough effect; inconclusive means small, poorly fitted or top-dose-only effect, or another doubt; inactive means no such curve, though single readings can be large; an effect the other way counts as inactive or inconclusive.
1) CCCc1nnc(NC(=O)CCC(=O)NCCc2ccc(OC)c(OC)c2)s1
2) CCCCC(=O)Nc1cccc(-c2nnc(-c3ccccc3)o2)c1
3) O=C(Nc1cccc(-c2nnc(-c3ccccc3)o2)c1)C1CCCCC1
4) O=S(=O)(NC1CCCCC1)c1cccc(-c2nnc(-c3ccccc3)o2)c1
5) CCC(=O)Nc1cccc(-c2nnc(-c3ccccc3)o2)c1
6) CCCCN(C(=O)c1[nH]c(C)c(C(=O)OCC)c1C)c1c(N)n(CCCC)c(=O)[nH]c1=O
screen / no.	1	2	3	4	5	6
TDP1 inh	0%	-2%	-1%[56.1 µM]	-4%	/	-4%[0.505 µM]
DT40 TDP1 CPT	-6%	23µM*	?	?	21µM*	-5%
uPA surface inh	-9%	/	-2%	5%	-3%	-2%
miR-21 FLuc	-2%	-13%	-12%	13%	/	/
DT40 TDP1 no CPT	-8%	23µM*	18µM*	15µM*	21µM*	-9%

# Grouped by structure: the entries above with sulfur
1) CCCc1nnc(NC(=O)CCC(=O)NCCc2ccc(OC)c(OC)c2)s1
4) O=S(=O)(NC1CCCCC1)c1cccc(-c2nnc(-c3ccccc3)o2)c1
screen / no.	1	4
TDP1 inh	0%	-4%
DT40 TDP1 CPT	-6%	?
uPA surface inh	-9%	5%
miR-21 FLuc	-2%	13%
DT40 TDP1 no CPT	-8%	15µM*

# (listing goes on)
7) COC(=O)CCC(C)C1CCC2C3C(OC(C)=O)CC4CC(O)CCC4(C)C3CC(O)C12C (configuration not stated)
8) COC(=O)CCC(C)C1CCC2C3CCC4CC(O)CCC4(C)C3CC(O)C12C (configuration not stated)
9) COc1ccc(/C=C(\NC(=O)c2ccc(Cl)cc2)C(=O)NCCCN2CCOCC2)cc1OC
10) CN(C(=O)C1CCCN(c2ncnc3c2nc2n3CCCCC2)C1)c1cccc(Cl)c1 (configuration not stated)
11) O=C(C1CCCN(c2ncnc3c2nc2n3CCCCC2)C1)N1CCN(c2cccc(Cl)c2)CC1 (configuration not stated)
12) Cc1ccccc1N(C)C(=O)C1CCCN(c2ncnc3c2nc2n3CCCCC2)C1 (configuration not stated)
screen / no.	7	8	9	10	11	12
TDP1 inh	/	/	/	5%	6%	7%
DT40 TDP1 CPT	?	13µM*	-4%	13µM*	23µM*	?
uPA surface inh	/	7%	1%	-6%	-12%	10%
miR-21 FLuc	/	/	-1%	19%	18%	-7%
DT40 TDP1 no CPT	16µM*	21µM*	-14%	12µM*	18µM*	23µM*

13) CCN(C(=O)C1CCN(c2ncnc3c2nc2n3CCCCC2)CC1)c1cccc(Cl)c1
14) COc1ccccc1N1CCN(c2ncnc3c2nc2n3CCCC2)CC1
15) O=C(C1CCN(c2ncnc3c2nc2n3CCCCC2)CC1)N1CCN(c2ccccc2F)CC1
16) COc1ccccc1N1CCN(C(=O)C2CCCN(c3ncnc4c3nc3n4CCCCC3)C2)CC1 (configuration not stated)
17) Cc1cccc(N2CCN(C(=O)C3CCN(c4ncnc5c4nc4n5CCCCC4)CC3)CC2C)c1 (configuration not stated)
18) O=C(C1CCCN(c2ncnc3c2nc2n3CCCCC2)C1)N1CCN(c2ccccc2)CC1 (configuration not stated)
screen / no.	13	14	15	16	17	18
TDP1 inh	1%	6%	10%	6%	7%	6%
DT40 TDP1 CPT	?	18µM*	?	15µM*	6.5µM*	?
uPA surface inh	/	/	17%	4%	-20%	5%
miR-21 FLuc	14%	10%	28%	2%	?	19%
DT40 TDP1 no CPT	?	18µM*	21µM*	16µM*	4.6µM*	2.1µM*

19) Cc1ccc(NC(=O)CSc2[nH]c(=O)ncc2C)cc1
20) CC1=C(C(=O)O)N2C(=O)C(NC(=O)c3ccc(F)cc3)C2SC1 (configuration not stated)
21) Cc1ccc(C)c(N2CCN(C(=O)C3CCCN(c4ncnc5c4nc4n5CCCCC4)C3)CC2)c1 (configuration not stated)
22) Cc1ccc(C)c(N2CCN(c3ncnc4c3nc3n4CCCCC3)CC2)c1
23) O=C(COc1ccccc1)Nc1cccc(-c2cn3cccnc3n2)c1
24) O=C(Cc1ccccc1)Nc1cccc(-c2cn3cccnc3n2)c1
screen / no.	19	20	21	22	23	24
TDP1 inh	5%	1%	5%	-1%	2%	0%
DT40 TDP1 CPT	?	-15%	16µM*	?	21µM*	?
uPA surface inh	/	5%	4%	/	-4%	/
miR-21 FLuc	-40%	/	27%	3%	-9%	-36%
DT40 TDP1 no CPT	-15%	-13%	23µM*	?	?	?

25) COc1ccc(-c2cn3cccnc3n2)cc1NC(=O)COc1ccccc1
26) O=C(c1ccc(Cl)cc1)C(CN1CCCCC1)c1ccccc1 (configuration not stated)
27) CCCOc1ccc(C(=O)C(CN2CCOCC2)c2ccccc2)cc1 (configuration not stated)
28) CCOC(=O)C(CN1CCCC1)c1ccccc1 (configuration not stated)
29) COc1ccc(C(O)C(CN2CCOCC2)c2ccccc2)cc1F (configuration not stated)
30) COc1ccc(C(=O)C(CN2CCOCC2)c2ccccc2)cc1F (configuration not stated)
screen / no.	25	26	27	28	29	30
TDP1 inh	8%	/	2%	-3%	6%	4%
DT40 TDP1 CPT	21µM*	1.6µM*	13µM*	0%	-23%	4.1µM*
uPA surface inh	/	-3%	-15%	9%	-2%	-5%
miR-21 FLuc	-9%	?	?	/	-2%	?
DT40 TDP1 no CPT	13µM*	2.1µM*	8.2µM*	3%	-28%	2.6µM*

# The list goes on, starting with the last 2 of the part before.
29) COc1ccc(C(O)C(CN2CCOCC2)c2ccccc2)cc1F (configuration not stated)
30) COc1ccc(C(=O)C(CN2CCOCC2)c2ccccc2)cc1F (configuration not stated)
31) COc1cc(C=O)ccc1OCc1c(C)noc1C
32) CCc1nn(CC(=O)NCc2cccnc2)c(=O)c2cc3occc3n12
33) CC[n+]1ccccc1/C=C1\Sc2ccc(C)cc2N1C
34) CCOC(=O)c1ccc(NC(=O)c2cc3c(C)nn(-c4ccccc4Cl)c3s2)s1
35) Nc1nc2ccccc2[nH]1
36) Nc1ccccc1Sc1nc2ccccc2[nH]1
screen / no.	29	30	31	32	33	34	35	36
TDP1 inh	6%	4%	1%	1%	/	3%	15%	8%
DT40 TDP1 CPT	-23%	4.1µM*	4%	-3%	0.46µM*	?	17%	13µM*
uPA surface inh	-2%	-5%	-3%	-2%	7.1µM*	-7%	8%	-7%
miR-21 FLuc	-2%	?	-1%	-16%	29%	-6%	4%	-3%
DT40 TDP1 no CPT	-28%	2.6µM*	1%	19%	0.33µM*	?	9%	15µM*

37) COc1ccccc1CNC(=O)CCn1c(=O)oc2ccccc21
38) COc1cc(/C=N/NC(=O)c2cc(-c3cccn3C)n[nH]2)cc(OC)c1OC
39) COc1cccc(/C=N/NC(=O)c2cc(-c3cccn3C)n[nH]2)c1O
40) CCN(CC)c1ccc(C(=C2C=CC(=[N+](CC)CC)C=C2)c2ccc(S(=O)(=O)O)cc2S(=O)(=O)[O-])cc1
41) CCN(CC)c1ccc(C(=O)O)cc1
42) CC(C)NC(=S)NNc1ncnc2sc3c(c12)CC(C)(C)OC3
43) CC1(C)Cc2c(sc3ncnc(NNC(=S)NCc4ccccc4)c23)CO1
44) CSc1nc(N(C)C)nc(N(C#N)CCOC(C)=O)n1
screen / no.	37	38	39	40	41	42	43	44
TDP1 inh	-1%	7%	11%	/	3%	/	-5%	5%
DT40 TDP1 CPT	0%	21µM*	5.8µM*	23µM*	11%	-5%	?	?
uPA surface inh	3%	/	-10%	?	-13%	6%	?	-11%
miR-21 FLuc	-2%	9%	2%	/	-1%	/	22%	-1%
DT40 TDP1 no CPT	-22%	21µM*	6.5µM*	?	-19%	?	23µM*	?

# Compound activity: PubChem, National Center for Advancing Translational Sciences (NCATS)
